Laboratory results: patent publication US20050118658A1, “Use of ERRalpha phosphorylation status as a breast cancer biomarker” (priority 2003, published 2005)

Assays:
[1] = tested on: MCF-7 cells; assay: 7 day growth assay, DNA content per well, MCF-7 cells; details: trastuzumab, 7 days
[2] = tested on: BT-474 cells; details: literature statement; cited from earlier work
[3] = tested on: ERRα; assay: Immunoblot analysis of ERRα expression in ERRα-transfected BT-474 cells; format: cell-based, human; details: BT-474 cells transfected with ERRα, 48 h; 20 μg/ml trastuzumab, 1 μM gefitinib, 20 μM U0126 or 20 μM LY294002
Protocol: BT-474 cells were co-transfected in parallel with the ERE(5x)-regulated and TATA dual-luciferase reporter gene sets along with the indicated expression plasmids. […] In panel (B), the cells were incubated for 48 h in estrogen-free medium supplemented with dimethyl sulfoxide as the drug vehicle control, 20 μM U0126 (MEK inhibitor), or 20 μM LY294002 (PI3K inhibitor) as indicated. After incubation for 48 h, the cells were harvested for dual-luciferase assays. Data were analyzed as described in the legend to FIG. 2. (C) Immunoblot analysis of protein extracts (20 μg per sample) prepared from BT-474 cells treated as in panels A and B above for luciferase activity. The membrane was probed with antibodies that react specifically with ERRα. Reactive proteins were visualized by enhanced chemiluminescence and autoradiography. […]
Proteins were extracted in Cell Lysis Buffer (Cell Signaling Technology, Beverly, Mass.) supplemented with Protease Inhibitor Cocktail Set III and Phosphatase Inhibitor Cocktail Set II (Calbiochem). Protein amounts were quantified with Coomassie Protein Assay Reagent (Pierce Biotechnology) with BSA as the standard. […] Reacting material was detected using horseradish peroxidase-conjugated secondary antibodies (Jackson ImmunoResearch Laboratories, West Grove, Pa.) together with enhanced chemiluminescence (Amersham Pharmacia) and autoradiography.

[4] = tested on: MCF-7 cells; details: literature statement; cited from earlier work
[5] = tested on: ERRα1-mediated constitutive activation of ERE-regulated transcription in BT-474 cells; assay: Transient transfection dual-luciferase assay of ERRα1-mediated ERE-regulated transcription in BT-474 cells; format: cell-based, human; details: 20 μg/ml trastuzumab, 48 h, estrogen-free medium, BT-474 cells over-expressing ERRα1
Protocol: BT-474 cells were co-transfected in parallel with the ERE(5x)-regulated and TATA dual-luciferase reporter gene sets along with the indicated expression plasmids. […] In panel (B), the cells were incubated for 48 h in estrogen-free medium supplemented with dimethyl sulfoxide as the drug vehicle control, 20 μM U0126 (MEK inhibitor), or 20 μM LY294002 (PI3K inhibitor) as indicated. After incubation for 48 h, the cells were harvested for dual-luciferase assays. Data were analyzed as described in the legend to FIG. 2. (C) Immunoblot analysis of protein extracts (20 μg per sample) prepared from BT-474 cells treated as in panels A and B above for luciferase activity. The membrane was probed with antibodies that react specifically with ERRα. Reactive proteins were visualized by enhanced chemiluminescence and autoradiography. (D) Immunoblot analysis as in panel C above, only the membrane was probed with antibodies that react specifically with phosphorylated Akt (p-Akt), total Akt, phosphorylated MAPK (p-MAPK) or total MAPK.

## trastuzumab
[1]
  effect on growth of MCF-7 cells: did not significantly block growth
[2]
  effect on growth of BT-474 cells (known, ref. 26): significantly inhibit the growth
[3]
  ERRα expression (immunoblot): expression was maintained
[4]
  effect on growth of MCF-7 cells (known, ref. 35): affect only minimally the growth
[5]
  inhibition of ERRα1's activity: approximately 85%
